# Screening results deposited in PubChem by Broad Institute.
# An excerpt weighted towards active compounds, which were near 1% of everything screened.
# Rtt109 HAT inh: inhibitors of Candida albicans Rtt109/Vps75 histone acetyltransferase. purified Rtt109/Vps75, ThioGlo CoA-SH fluorescence, 4 h. hit rate 0.16% among 330,000. Q5AAJ8. AID 540336. inhibition, % at 34.9 µM;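 active = inhibition of at least 50% in every replicate; inconclusive = best replicate reaches 50% inhibition but some replicates fall short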
# Yeast UUG start: modulators of start codon recognition fidelity in yeast. S. cerevisiae UUG-firefly luciferase reporter, luminescence/redox ratio. activity score, % at 18.7 µM. 0.13% of 350,000 active. AID 602363;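 active = replicate mean at a twofold rise or more, about +100% in these data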;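 also: firefly luciferase made from a UUG start codon reports start codon fidelity; reporter light over untreated wells divided by growth signal over untreated wells; some hits fall short of that in this replicate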
# CDK5 p35 inh: CDK5/p35 (human) kinase inhibition. hit rate 0.01% among 330,000. Q00535+Q15078. Recombinant CDK5/p35, ADP-Glo luminescence, 60 min. inhibition, % at 10 µM. AID 488839;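 active = highest replicate inhibition of at least 50% and at least 75% of replicates reaching 50%; inconclusive = only one of the two criteria met; inactive = both criteria failed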;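 note: plate controls were DMSO neutral control for no effect and GW8510 at 10 µM for full effect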
# Cneo AK release: causes C. neoformans cell lysis; adenylate kinase release luminescence, 4 h; normalised: neutral wells 0, clomiphene wells 100; lysis activity, % at 15 µM; hit rate 0.2% among 360,000; AID 651654;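 active = mean lysis activity across replicates of at least 80%, whatever share of replicates individually reach that level; inactive = mean lysis activity below 80%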
#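 Schedule: static 4 h at 37 °C with compound, 1 h detection; system: C. neoformans cells; benchmarks: Clomiphene as positive control; buffer or medium: fresh YPD medium; measure: luminescence rise reflecting yeast cell lysis; measured by: luminescent adenylate kinase detection reagent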
# C2C12 statin: protects C2C12 myotubes from simvastatin toxicity; ATP luminescence, 48 h; scaled: DMSO 0, geranylgeraniol control 100; rescue of ATP level, % at 7.49 µM; hit rate 0.78% among 330,000; AID 602340;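 active = mean ATP rescue above about 67%, or every replicate alone reaching that limit, limit read from the data, passing the limit was not always enough; inconclusive = no clear call, values can overlap the other calls; inactive = mean under the limit and some replicate under it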;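 note: myotubes were challenged with 10 µM simvastatin during compound exposure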
# Numbers without * were called inactive; ? = inconclusive; · = no result.
SMILES,Rtt109 HAT inh,Yeast UUG start,CDK5 p35 inh,Cneo AK release,C2C12 statin
C[C@H]1CCCCO[C@@H](CN(C)Cc2ccncc2)[C@@H](C)CN([C@@H](C)CO)C(=O)c2cc(NC(=O)Nc3ccccc3)ccc2O1,·,·,·,99*,·
C[C@@H]1CN([C@H](C)CO)C(=O)c2cccc(NC(=O)c3ccc(-c4nccs4)cc3)c2O[C@H]1CN(C)CC1CCCCC1,·,0,·,6,-8
CCOc1ccccc1OCCCCCc1c(C)n[nH]c1C,-2,-7,2,4,6
Cc1cccc(OCCCCc2c(C)n[nH]c2C)c1C,-6,-15,0,28,103*
CCSc1ncc(/C=N/Nc2ccccc2)n1C,-2,-29,2,0,92*
COc1ccc(N(CN2C(=O)c3ccccc3C2=O)C(=O)COc2ccc(Cl)cc2Cl)cc1,5,-12,-2,1,2
O=C1c2ccccc2C(=O)N1CN(C(=O)COc1ccccc1)c1ccc(F)cc1,-1,20,0,1,114*
C[C@H]1CCCCO[C@@H](CN(C)C(=O)Nc2ccc3c(c2)OCO3)[C@@H](C)CN([C@@H](C)CO)C(=O)c2cc(NS(=O)(=O)c3cccs3)ccc2O1,·,-5,·,1,84*
C[C@@H]1CCCCO[C@@H](CN(C)C(=O)Nc2cccc3ccccc23)[C@@H](C)CN([C@H](C)CO)C(=O)c2cc(NS(=O)(=O)c3ccc(Cl)cc3)ccc2O1,·,-5,·,-3,94*
C[C@@H]1CCCCO[C@@H](CN(C)C(=O)Nc2cccc3ccccc23)[C@H](C)CN([C@H](C)CO)C(=O)c2cc(NS(=O)(=O)c3cccs3)ccc2O1,·,-11,·,0,108*
CCNC(=O)[C@H]1[C@H](CO)[C@H]2Cn3c(ccc(-c4cccc(F)c4)c3=O)[C@@H]1N2C(C)=O,·,·,·,·,-3
CNC[C@@H]1OCCCC[C@@H](C)Oc2ccc(NS(=O)(=O)c3ccccc3)cc2C(=O)N([C@H](C)CO)C[C@H]1C,·,4,·,2,7

# Compounds from the list above that contain an NH in an aromatic ring, in the order listed:
SMILES,Rtt109 HAT inh,Yeast UUG start,CDK5 p35 inh,Cneo AK release,C2C12 statin
CCOc1ccccc1OCCCCCc1c(C)n[nH]c1C,-2,-7,2,4,6
Cc1cccc(OCCCCc2c(C)n[nH]c2C)c1C,-6,-15,0,28,103*

# Remaining list, next part.
SMILES,Rtt109 HAT inh,Yeast UUG start,CDK5 p35 inh,Cneo AK release,C2C12 statin
Cc1cc2ncn(/N=C/c3ccc([N+](=O)[O-])o3)c2cc1C,7,-3,-1,-3,87*
CN(C)CCNC(=O)c1ccc(Cl)s1,10,·,-3,·,6
O=C(NCCCCNC(=O)c1ccc(Cl)s1)c1ccc(Cl)s1,12,-10,1,-1,108*
COc1ccc(N2CCN(c3ncnc4scc(-c5ccc(C)cc5)c34)CC2)cc1,52*,-11,-1,0,-14
COc1ccc(N2CCN(c3ncnc4scc(-c5ccc(F)cc5)c34)CC2)cc1,2,-16,1,2,4
Cc1ccc(NS(=O)(=O)c2ccc(C)c(C(=O)N3CCN(C)CC3)c2)cc1,-5,-7,-2,-1,123*
Cc1ccc(NS(=O)(=O)c2ccc(C(=O)N3CCCN(C)CC3)cc2)cc1,14,-16,-1,1,·
O=C(NCC[C@@H]1CC[C@H](NC(=O)C2CCCC2)[C@H](CO)O1)c1cc(Cl)cc(Cl)c1,·,-2,·,-1,-2
CCN(CC)c1ccc(N=Cc2cc(Br)ccc2O)cc1,59*,·,0,·,·
COc1cc(/C=C2\SC(=S)N(NC(=O)c3ccncc3)C2=O)ccc1O,18,·,2,·,·
COc1cc(/C=C2\SC(=S)N(NC(=O)c3ccc(O)c(OC)c3)C2=O)ccc1O,7,-10,2,-4,102*
COCC(=O)N(C)C[C@H]1Oc2cc(-c3ccncc3)ccc2S(=O)(=O)N([C@@H](C)CO)C[C@@H]1C,·,-4,·,-1,-6
C[C@H]1CN([C@@H](C)CO)C(=O)c2cc(NS(=O)(=O)c3ccccc3)ccc2O[C@@H]1CN(C)S(=O)(=O)c1cccs1,·,12,·,38,?
Clc1c(-c2ccccc2)nc2ccccn12,13,-6,2,-2,6
c1ccn2c(c1)nc1c2nc2ccccn21,3,-19,6,1,168*
C[C@H]1CN([C@@H](C)CO)C(=O)Cc2cc(NS(=O)(=O)c3ccc(Cl)cc3)ccc2O[C@@H]1CN(C)S(=O)(=O)c1ccc(F)cc1,·,17,·,-27,-27
CCCNC(=O)[C@@H]1[C@@H](CO)[C@@H]2Cn3c(ccc(/C=C/c4ccccc4)c3=O)[C@@H]2N1CC,·,·,·,41,18
COc1ccccc1C#Cc1ccc2c(c1)O[C@@H](CN(C)C)[C@H](C)CN([C@@H](C)CO)S2(=O)=O,·,-3,·,-1,-29
COc1ccc(CNc2oc(-c3cccc4ccccc34)nc2C#N)cc1,-4,-1,2,1,-12

# Only Yeast UUG start, C2C12 statin and Cneo AK release (two entries from above):
Molecule	Yeast UUG start	C2C12 statin	Cneo AK release
C[C@@H]1CN([C@H](C)CO)C(=O)c2cccc(NC(=O)c3ccc(-c4nccs4)cc3)c2O[C@H]1CN(C)CC1CCCCC1	0	-8	6
CCOc1ccccc1OCCCCCc1c(C)n[nH]c1C	-7	6	4
